The experiment addresses R132H mutant IDH1 enzyme (Homo sapiens (Human), UniProt O75874, R132H). In words: R132H IDH1 Enzymatic Assay. The conditions noted are these: R132H mutant IDH1 enzyme 1.5 nM final; luminescence readout; read-out: IC50. The format is biochemical.

Sequences of proteins named here, by UniProt entry; tags and fusion partners are left off.
UniProt O75874, whole entry R132H: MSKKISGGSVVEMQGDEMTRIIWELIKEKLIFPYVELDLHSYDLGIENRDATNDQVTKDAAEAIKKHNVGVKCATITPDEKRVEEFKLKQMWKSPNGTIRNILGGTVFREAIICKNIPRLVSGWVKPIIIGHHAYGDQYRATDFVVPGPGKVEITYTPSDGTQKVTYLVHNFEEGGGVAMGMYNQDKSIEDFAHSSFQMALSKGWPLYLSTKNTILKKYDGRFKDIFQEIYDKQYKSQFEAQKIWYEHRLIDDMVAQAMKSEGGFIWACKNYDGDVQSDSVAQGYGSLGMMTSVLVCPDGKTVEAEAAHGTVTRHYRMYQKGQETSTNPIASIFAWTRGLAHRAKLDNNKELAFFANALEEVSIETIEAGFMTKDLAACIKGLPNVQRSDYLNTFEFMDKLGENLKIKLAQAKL

Turning to `CO[C@@H](C(C)C)[C@H]1CC[C@@H](C(=O)N2Cc3cccnc3Nc3ccc(N4CCOCC4)cc32)CC1` [Example 116, 6-({cis-4-[(1S)-1-methoxy-2-methylpropyl]cyclohexyl}-carbonyl)-8-morpholin-4-yl-6,11-dihydro-5H-pyrido[2,3-b][1,5]benzodiazepine], the IC50 amounted to 155 nM.
Regarding `O=C(N1Cc2cccnc2Nc2ccc(N3CC4CCC3CO4)cc21)C1(F)CCN(CC(F)(F)F)CC1` (stereo not shown) [Example 345, 6-{[4-fluoro-1-(2,2,2-trifluoroethyl)piperidin-4-yl]carbonyl}-8-(2-oxa-5-azabicyclo[2.2.2]oct-5-yl)-6,11-dihydro-5H-pyrido[2,3-b][1,5]benzodiazepine], the half-maximal inhibitory concentration (IC50) came out at 13 nM.
In the case of `CC(C)O[C@H]1CC[C@H](C(=O)N2Cc3cccnc3Nc3ccc(S(=O)(=O)C4CC4)cc32)CC1` [Example 525, [8-(Cyclopropylsulfonyl)-5,11-dihydro-6H-pyrido[2,3-b][1,5]benzodiazepin-6-yl][trans-4-(propan-2-yloxy)cyclohexyl]methanone], the IC50 stood at 8 nM.
Take `CO[C@H]1CC[C@H](C(=O)N2Cc3cccnc3Nc3ccc(N(C)CC4CCCO4)cc32)CC1` (stereo partly drawn) [Example 281, 6-[(trans-4-methoxycyclohexyl)carbonyl]-N-methyl-N-(tetrahydrofuran-2-ylmethyl)-6,11-dihydro-5H-pyrido[2,3-b][1,5]benzodiazepin-8-amine]: the IC50 worked out at 94 nM.
With `CC(C)O[C@@H](C)[C@H]1CC[C@@H](C(=O)N2Cc3cccnc3Nc3ccc(N4CCOCC4)cc32)CC1` [Example 172, [8-(Morpholin-4-yl)-5,11-dihydro-6H-pyrido[2,3-b][1,5]benzodiazepin-6-yl]{cis-4-[(1S)-1-(propan-2-yloxy)ethyl]cyclohexyl}methanone] the figure was 168 nM.
On to `COC1CCC(C(=O)N2Cc3cccnc3Nc3ccc(N4CC[C@@H](OC)C4)cc32)CC1` (single isomer, unassigned) [Example 205], for which the IC50 turned out to be 270 nM.
On to `COC1(C)CN(c2ccc3c(c2)N(C(=O)[C@H]2CC[C@H](OC)CC2)Cc2cccnc2N3)C1` [Example 262, 6-[(trans-4-methoxycyclohexyl)carbonyl]-8-(3-methoxy-3-methylazetidin-1-yl)-6,11-dihydro-5H-pyrido[2,3-b][1,5]benzodiazepine], for which the IC50 was determined as 722 nM.
The same measure for `CO[C@H]1CC[C@H](C(=O)N2Cc3cccnc3Nc3ccc(-c4ccc(C#N)s4)cc32)CC1` [Example 360, 5-{6-[(trans-4-methoxycyclohexyl)carbonyl]-6,11-dihydro-5H-pyrido[2,3-b][1,5]benzodiazepin-8-yl}thiophene-2-carbonitrile]: 52 nM; for `CC1CC(c2ccc3c(c2)N(C(=O)[C@H]2CC[C@H](OC(C)C)CC2)Cc2cccnc2N3)CC(C)O1` (stereo partly drawn) [Example 397, 8-(2,6-dimethyltetrahydro-2H-pyran-4-yl)-6-{[trans-4-(1-methylethoxy)cyclohexyl]carbonyl}-6,11-dihydro-5H-pyrido[2,3-b][1,5]benzodiazepine]: 20 nM; for `CC[C@@H](N[C@H]1CC[C@H](C(=O)N2Cc3cccnc3Nc3ccc(N4CCOCC4)cc32)CC1)C(F)(F)F` [Example 451, trans-4-[(8-morpholin-4-yl-5,11-dihydro-6H-pyrido[2,3-b][1,5]benzodiazepin-6-yl)carbonyl]-N-[(1R)-1-(trifluoromethyl)propyl]-cyclohexanamine]: 128 nM.
With `COC1C[C@H]2CC[C@@H]1CN2c1ccc2c(c1)N(C(=O)[C@H]1CC[C@H](OC(C)C)CC1)Cc1cccnc1N2` (single isomer, unassigned) [Example 340] the figure was 30 nM; with `CO[C@H]1CC[C@H](C(=O)N2Cc3cccnc3Nc3ccc(N4CCOC(C5CC5)C4)cc32)CC1` (stereo partly drawn) [Example 293, 8-(2-cyclopropylmorpholin-4-yl)-6-[(trans-4-methoxycyclohexyl)carbonyl]-6,11-dihydro-5H-pyrido[2,3-b][1,5]benzodiazepine], 589 nM; with `CO[C@H]1CC[C@H](C(=O)N2Cc3cccnc3Nc3ccc(N4CCn5nc(C(F)(F)F)nc5C4)cc32)CC1` [Example 268, 6-[(trans-4-methoxycyclohexyl)carbonyl]-8-[2-(trifluoromethyl)-5,6-dihydro[1,2,4]triazolo[1,5-a]pyrazin-7(8H)-yl]-6,11-dihydro-5H-pyrido[2,3-b][1,5]benzodiazepine], 623 nM.
The same measure for `CC(C)O[C@H]1CC[C@H](C(=O)N2Cc3cccnc3Nc3ccc(C(F)(F)F)cc32)CC1` [Example 518, [Trans-4-(propan-2-yloxy)cyclohexyl][8-(trifluoromethyl)-5,11-dihydro-6H-pyrido[2,3-b][1,5]benzodiazepin-6-yl]methanone]: 55 nM; for `O=C([C@H]1CC[C@@H](OCC(F)(F)F)CC1)N1Cc2cccnc2Nc2ccc(N3CCOCC3)cc21` [Example 133, 8-morpholin-4-yl-6-{[cis-4-(2,2,2-trifluoroethoxy)cyclohex-yl]carbonyl}-6,11-dihydro-5H-pyrido[2,3-b][1,5]benzodiazepine]: 40 nM; for `CC(C)(N1CCC(C(=O)N2Cc3cccnc3Nc3ccc(N4CCOCC4)cc32)CC1)C(F)(F)F` [Example 38, 8-morpholin-4-yl-6-{[1-(2,2,2-trifluoro-1,1-dimethylethyl)piperidin-4-yl]carbonyl}-6,11-dihydro-5H-pyrido[2,3-b][1,5]benzodiazepine]: 49 nM.
For `CO[C@H]1CC[C@H](C(=O)N2Cc3cccnc3Nc3ccc(-c4cnn5ncccc45)cc32)CC1` [Example 361, 6-[(trans-4-methoxycyclohexyl)carbonyl]-8-pyrazolo[1,5-b]pyridazin-3-yl-6,11-dihydro-5H-pyrido[2,3-b][1,5]benzodiazepine], the IC50 was 97 nM.
On to `O=C(C1CCN(CC(F)(F)F)C1)N1Cc2cccnc2Nc2ccc(N3CCOCC3)cc21` (stereo not shown) [Example 50, 8-morpholin-4-yl-6-{[1-(2,2,2-trifluoroethyl)pyrrolidin-3-yl]carbonyl}-6,11-dihydro-5H-pyrido[2,3-b][1,5]benzodiazepine], for which the IC50 turned out to be 686 nM.
For the molecule `CO[C@H]1CC[C@H](C(=O)N2Cc3cccnc3Nc3ccc(N4CCOC(c5cccnc5)C4)cc32)CC1` (stereo partly drawn) [Example 254, 6-[(trans-4-methoxycyclohexyl)carbonyl]-8-(2-pyridin-3-ylmorpholin-4-yl)-6,11-dihydro-5H-pyrido[2,3-b][1,5]benzodiazepine], the IC50 was found to be 894 nM.
The same measure for `CC(C(F)F)N1CCC(C(=O)N2Cc3cccnc3Nc3ccc(N4CCOCC4)cc32)CC1` (stereo not shown) [Example 474, 6-{[1-(2,2-difluoro-1-methylethyl)piperidin-4-yl]carbonyl}-8-morpholin-4-yl-6,11-dihydro-5H-pyrido[2,3-b][1,5]benzodiazepine]: 251 nM.
Turning to `COC1CCC(C(=O)N2Cc3cccnc3Nc3ccc(N4CCC(C)(OC)CC4)cc32)CC1` (stereo not shown) [Example 200, 6-[(4-methoxycyclohexyl)carbonyl]-8-(4-methoxy-4-methylpiperidin-1-yl)-6,11-dihydro-5H-pyrido[2,3-b][1,5]benzodiazepine], the IC50 came to 663 nM.
For `CO[C@H]1CC[C@H](C(=O)N2Cc3cccnc3Nc3ccc(C(C)O)cc32)CC1` (stereo partly drawn) [Example 517, [8-(1-Hydroxyethyl)-5,11-dihydro-6H-pyrido[2,3-b][1,5]benzodiazepin-6-yl](trans-4-methoxycyclohexyl)methanone], the IC50 was 822 nM.

For the origin of these results see patent US10442819B2, “Tricyclic compounds as inhibitors of mutant IDH enzymes” (Merck Sharp & Dohme Corp., priority 2014, dated 2019).
